Source: PubChem
Sa growth inh: inhibitors of Staphylococcus aureus growth at 42 °C; S. aureus RN4220 growth, OD600, 20 h; stronger effect = lower value; relative growth, % (test concentration not listed); hit rate 0.53% among 170,000; AID 720641;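 active means relative growth at most 50% at the other temperature and 20+ points below 30 °C, or under 10% at both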
GIV-Gai inh: blocks GIV peptide binding to rat Galpha-i3. P08753. Galpha-i3/FITC-GIV peptide fluorescence polarization, 90 min; hits give low values; scaled: aluminum fluoride 0%, vehicle 100%. percent of control (FP), % (concentration not given with the values). actives 0.42% (n = 210,000). AID 1224905;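 active = replicate mean at 85% of control or lower, very high polarization wells dropped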;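 also: wells of about 15 µL received 100 nL stock; the first replicate is given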
HCMV NEC inh: disrupts HCMV UL50-UL53 complex binding | hit rate 0.15% among 190,000 | HTRF UL50-UL53 interaction, normalized percent inhibition | inhibition, % (concentration not given with the values) | AID 1918969; in the data active means inhibition above about 27%, passing the limit was not always enough
GIV-Gai FP conf: confirmation of inhibitors of GIV binding to rat Galpha-i3; shares compounds with GIV-Gai inh; FITC-GIV peptide binding to Galphai3, fluorescence polarization; stronger effect = lower value; fluorescence polarization, mP at 100 µM; hit rate 38% among 580; AID 1259350;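 active means inhibition score of 15 or more, meaning 100 minus mean polarization as percent of control over three replicates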
GIV Gai AS conf: GIV-Galpha-i3 inhibition, AlphaScreen confirmation. shares compounds with GIV-Gai inh. AlphaScreen Galphai3-GIV binding, purified proteins, 90 min; stronger effect = lower value. AlphaScreen counts at 100 µM. hit rate 39% among 580;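 active means inhibition score at or above a set limit, where the score is 100 minus the three-replicate mean percent of control signal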
* hit, by the source's call; nt = not tested or not shown. This is a sample that favours compounds with a hit; in the whole collection about 0.7% have one here.

No. | SMILES | Sa growth inh | GIV-Gai inh | HCMV NEC inh
1 | COC(=O)CSc1nc(-c2ccccc2)cc(-c2cccs2)c1C#N | nt | 112 | nt
2 | CCCN1CC=C2C(C#N)=C(N)C(C#N)(C#N)C(c3ccc(OCC(N)=O)cc3)C2C1 (stereo not drawn) | 109 | 85* | -19
3 | CCCN1CC=C2C(C#N)=C(N)C(C#N)(C#N)C(c3ccc(OC)cc3)C2C1 (stereo not drawn) | nt | 111 | nt
4 | O=C1/C(=C\c2ccc(-c3ccc(Cl)cc3)o2)NC(=S)N1c1ccccc1 | nt | 123 | nt
5 | O=C(/C=C/Sc1nc2ccccc2o1)c1ccccc1 | 84 | 101 | -22
6 | O=C(/C=C/Sc1ccccn1)c1ccccc1 | 102 | 86 | -10
7 | Cn1cc(C(=O)Oc2cccc(F)c2)c2ccccc2c1=O | nt | 102 | nt
8 | O=c1[nH]c(-c2ccc(O)cc2)nc2ccccc12 | 147 | 88 | -18

No. | GIV-Gai FP conf | GIV Gai AS conf
1 | nt | nt
2 | 71 | 23647
3 | nt | nt
4 | nt | nt
5 | nt | nt
6 | 63 | 40583
7 | nt | nt
8 | 69 | 45426

Next entries
No. | SMILES | Sa growth inh | GIV-Gai inh | HCMV NEC inh
9 | Cc1ccc(-c2nc3ccccc3c(=O)[nH]2)cc1 | nt | 101 | -11
10 | O=C1/C(=C/c2ccc(Cl)cc2)SC(=Nc2ccccc2)N1N1CCOCC1 | 87 | nt | -13
11 | Cc1c([N+](=O)[O-])c(C)c2c(=O)cc(C(F)(F)C(F)(F)C(F)(F)C(F)F)oc2c1[N+](=O)[O-] | nt | 97 | nt
12 | CN1C(=O)/C(=C\c2ccc(-c3ccc(S(N)(=O)=O)cc3)o2)c2ccccc21 | 97 | nt | -34
13 | CC1(C)OC(=O)C(=Cc2ccc(-c3ccc(S(N)(=O)=O)cc3)o2)C(=O)O1 | 75 | 87 | -42
14 | O=C(Cc1ccc(Cl)cc1)N1CCC(c2nc(-c3ccc(Cl)cc3)no2)CC1 | nt | 93 | -3
15 | COc1ccnc2c1c(=O)n(CC(=O)NCc1ccc3c(c1)OCO3)c(=O)n2C | nt | 113 | 7
16 | CN1C(C(=O)c2ccccc2)=C(NC(=O)c2ccccc2)c2ccccc2S1(=O)=O | 103 | 67* | -5

No. | GIV-Gai FP conf | GIV Gai AS conf
9 | nt | nt
10 | nt | nt
11 | nt | nt
12 | nt | nt
13 | 67 | 4423*
14 | nt | nt
15 | nt | nt
16 | 66 | 42284

(next part)
No. | SMILES | Sa growth inh | GIV-Gai inh | HCMV NEC inh
17 | CCN1C(C(=O)c2ccccc2)=C(NC(=O)c2ccc(Cl)cc2)c2ccccc2S1(=O)=O | 106 | 104 | -2
18 | O=C(c1cc(-c2ccc(F)cc2)no1)N1CCCC1c1ccc(F)cc1 (stereo not drawn) | nt | 107 | 14
19 | C=CCN(c1ccccc1)S(=O)(=O)c1ccc2[nH]cc(C(=O)NCC3CCCO3)c(=O)c2c1 (stereo not drawn) | 97 | 101 | 3
20 | COc1ccc(NC(=O)C2CC(=O)N(c3cccc(-c4noc(C)n4)c3)C2)cc1OC (stereo not drawn) | nt | 100 | -22
21 | CC(=O)N1CCCc2cc(S(=O)(=O)N3CCC(C(=O)NCc4ccccn4)CC3)ccc21 | nt | 105 | nt
22 | O=C(Cc1ccccc1Cl)NC1(O)C(=O)c2ccccc2C1=O | 84 | 70* | 31
23 | CN1CCN(NC(=O)Cc2ccccc2Cl)CC1 | 118 | 106 | -2
24 | CC1=C(C(N)=O)C(c2ccc(Cl)cc2)n2ncnc2N1 (stereo not drawn) | nt | 113 | -8

No. | GIV-Gai FP conf | GIV Gai AS conf
17 | nt | nt
18 | nt | nt
19 | nt | nt
20 | nt | nt
21 | nt | nt
22 | 59 | 49874
23 | nt | nt
24 | nt | nt

Later entries.
No. | SMILES | Sa growth inh | GIV-Gai inh | HCMV NEC inh
25 | CCN(CC)c1ccc2c(c1)OC(N)=C(C#N)C2c1cccc(F)c1 (stereo not drawn) | 110 | 108 | -18
26 | N#CC1=C(N)Oc2cc(O)ccc2C1c1ccccc1 (stereo not drawn) | 88 | 104 | -10
27 | CC(C)c1ccc(NC(=O)c2cccn3c(-c4ccc(F)cc4)nnc23)cc1 | nt | 107 | nt
28 | Nc1ccc2c(c1)C(=O)N(CCO)C2=O | 73 | 90 | -38
29 | Nc1ccc2c(c1)C(=O)N(CCCCN1C(=O)c3ccc(N)cc3C1=O)C2=O | 100 | 109 | -27
30 | Cc1nc(N2CCc3ccccc32)nc2c1C(=O)CC(c1ccccc1O)C2 (stereo not drawn) | nt | 97 | -23
31 | C/C(=N/NC(=O)C(F)(F)F)c1cccs1 | 102 | 104 | -7
32 | C/C(=N\NC(=O)C(F)(F)F)c1ccccc1O | 71 | 94 | 3

No. | GIV-Gai FP conf | GIV Gai AS conf
25 | 115 | 21637
26 | nt | nt
27 | nt | nt
28 | 63 | 44198
29 | nt | nt
30 | nt | nt
31 | nt | nt
32 | 72 | 56622

Other compounds follow.
No. | SMILES | Sa growth inh | GIV-Gai inh | HCMV NEC inh
33 | COc1ccc(C2=Nc3ccccc3N=C(c3ccccc3)C2)c(O)c1 | nt | 119 | nt
34 | O=C1/C(=C/c2cccnc2)CC/C1=C\c1cccnc1 | 119 | 90 | nt
35 | O=C1/C(=C/c2cccnc2)CCC/C1=C\c1cccnc1 | 74 | 49* | 19
36 | CN1CCC(N(C)C(=O)Nc2cccc3ccccc23)CC1 | 78 | 100 | -36
37 | CCN1C(=O)c2cccc3c(NC(=O)c4ccc(S(=O)(=O)N5CCCC5)cc4)ccc1c23 | nt | 89 | nt
38 | CCN1C(=O)c2cccc3c(NC(=S)NC(=O)c4ccc(S(=O)(=O)N5CCCC5)cc4)ccc1c23 | nt | 107 | nt
39 | Cc1ccc(NC(=O)Cn2nc(C(=O)Nc3ccccc3)ccc2=O)cc1 | nt | 103 | nt
40 | CC(=O)Nc1ccc(NC(=O)CCc2c(C)nn(-c3ccc4nncn4n3)c2C)cc1 | nt | 103 | nt

No. | GIV-Gai FP conf | GIV Gai AS conf
33 | nt | nt
34 | nt | nt
35 | 53* | 32981
36 | nt | nt
37 | 79 | 47241
38 | nt | nt
39 | nt | nt
40 | nt | nt

Carrying on:
No. | SMILES | Sa growth inh | GIV-Gai inh | HCMV NEC inh
41 | Cc1nn(-c2ccc3nncn3n2)c(C)c1CCC(=O)Nc1ccc(F)c(Cl)c1 | nt | 89 | nt
42 | O=C(NCc1ccc(Br)cc1)c1ccc(-c2ccc(F)cc2)nc1 | nt | 114 | nt
43 | COc1ccc(-c2cc3c(=O)[nH]nc(SCC(=O)Nc4ccc(C)cc4)n3n2)cc1 | nt | 102 | -23
44 | Cc1cc(F)ccc1NC(=O)CC1CCN(C(=O)c2cn(-c3ccccc3)nc2-c2ccccc2)CC1 | nt | 103 | nt
45 | O=S1(=O)N=C(Nc2ccccc2)c2ccccc21 | 103 | nt | -22
46 | N#Cc1ccc(NC2=NS(=O)(=O)c3ccccc32)cc1 | 97 | 92 | -2
47 | CCOC(=O)C(C)Sc1nc2c(c(-c3cccs3)c1C#N)CN(C)CC2 (stereo not drawn) | nt | 124 | nt
48 | CSc1nc(C)nc(Sc2ccccc2)c1C#N | 110 | 125 | 10

No. | GIV-Gai FP conf | GIV Gai AS conf
41 | 78 | 27312
42 | nt | nt
43 | nt | nt
44 | nt | nt
45 | nt | nt
46 | 77 | 35009
47 | nt | nt
48 | nt | nt

Another view of four compounds above:
44: Cc1cc(F)ccc1NC(=O)CC1CCN(C(=O)c2cn(-c3ccccc3)nc2-c2ccccc2)CC1
45: O=S1(=O)N=C(Nc2ccccc2)c2ccccc21
46: N#Cc1ccc(NC2=NS(=O)(=O)c3ccccc32)cc1
47: CCOC(=O)C(C)Sc1nc2c(c(-c3cccs3)c1C#N)CN(C)CC2 (stereo not drawn)
Compound | 44 | 45 | 46 | 47
Sa growth inh | nt | 103 | 97 | nt
GIV-Gai inh | 103 | nt | 92 | 124
HCMV NEC inh | nt | -22 | -2 | nt
GIV-Gai FP conf | nt | nt | 77 | nt
GIV Gai AS conf | nt | nt | 35009 | nt

The results go on:
No. | SMILES | Sa growth inh | GIV-Gai inh | HCMV NEC inh
49 | N#Cc1c(Sc2ccccc2)ncc2cc3ccccc3nc12 | 101 | 79* | -20
50 | COC(=O)c1ccsc1NC(=O)c1cccc(C)c1 | 87 | 65* | -26
51 | COC(=O)c1ccsc1NC(=O)c1cccc(S(C)(=O)=O)c1 | 102 | 106 | -33
52 | CCOC(=O)N1CCN(C(=O)c2ccc(N3CCCCC3)c(NC(=O)Nc3ccc(Cl)c(Cl)c3)c2)CC1 | 101 | 105 | 15
53 | CCN(c1ccccc1)C1(O)C(=O)c2ccccc2C1=O | 101 | 96 | nt
54 | O=C(CC1(O)C(=O)c2ccccc2C1=O)c1ccccc1 | 111 | nt | -42
55 | O=C1c2ccccc2C(=O)C2(O)OCCOC12O (stereo not drawn) | 93 | 51* | 106*
56 | CCOC1(O)C(=O)c2ccccc2C(=O)C1(O)OCC (stereo not drawn) | 80 | 72* | 97*
57 | Cc1cccc(OCCC(=O)OCc2ncc(-c3ccccc3)o2)c1 | 102 | nt | -11
58 | CCC1C/C(=C\c2ccc(Br)cc2)C(=O)/C(=C/c2ccc(Br)cc2)C1 (stereo not drawn) | nt | 99 | nt
59 | CCC1C/C(=C\c2ccc(OCC(N)=O)cc2)C(=O)/C(=C/c2ccc(OCC(N)=O)cc2)C1 (stereo not drawn) | nt | 89 | nt

No. | GIV-Gai FP conf | GIV Gai AS conf
49 | 67 | 50621
50 | 69 | 35067
51 | nt | nt
52 | nt | nt
53 | nt | nt
54 | nt | nt
55 | 62* | 34751
56 | 65 | 46438
57 | nt | nt
58 | nt | nt
59 | 75 | 15830*
